The source of these data is PMC10350911 (Analytical chemistry, 2023).

For the test, the target named is membrane-bound tumor necrosis factor α (Homo sapiens (assumed; labelled …, UniProt P01375). As to the kind of experiment: DEPC covalent labeling-mass spectrometry.

B1: infliximab (antibody, V domains shown)
VH: EVKLEESGGGLVQPGGSMKLSCVASGFIFSNHWMNWVRQSPEKGLEWVAEIRSKSINSATHYAESVKGRFTISRDDSKSAVYLQMTDLRTEDTGVYYCSRNYYGSTYDYWGQGTTLTVSS
VL: DILLTQSPAILSVSPGERVSFSCRASQFVGSSIHWYQQRTNGSPRLLIKYASESMSGIPSRFSGSGSGTDFTLSINTVESEDIADYYCQQSHSWPFTFGSGTNLEVK
Turning to B1, the binding result is on record as “binds”.
